From patent US9694016B2 (Novartis AG, priority 2013, dated 2017)

The chains behind the UniProt entries cited, without tags or fusion partners.
UniProt P04049, whole entry Y340E/Y341E: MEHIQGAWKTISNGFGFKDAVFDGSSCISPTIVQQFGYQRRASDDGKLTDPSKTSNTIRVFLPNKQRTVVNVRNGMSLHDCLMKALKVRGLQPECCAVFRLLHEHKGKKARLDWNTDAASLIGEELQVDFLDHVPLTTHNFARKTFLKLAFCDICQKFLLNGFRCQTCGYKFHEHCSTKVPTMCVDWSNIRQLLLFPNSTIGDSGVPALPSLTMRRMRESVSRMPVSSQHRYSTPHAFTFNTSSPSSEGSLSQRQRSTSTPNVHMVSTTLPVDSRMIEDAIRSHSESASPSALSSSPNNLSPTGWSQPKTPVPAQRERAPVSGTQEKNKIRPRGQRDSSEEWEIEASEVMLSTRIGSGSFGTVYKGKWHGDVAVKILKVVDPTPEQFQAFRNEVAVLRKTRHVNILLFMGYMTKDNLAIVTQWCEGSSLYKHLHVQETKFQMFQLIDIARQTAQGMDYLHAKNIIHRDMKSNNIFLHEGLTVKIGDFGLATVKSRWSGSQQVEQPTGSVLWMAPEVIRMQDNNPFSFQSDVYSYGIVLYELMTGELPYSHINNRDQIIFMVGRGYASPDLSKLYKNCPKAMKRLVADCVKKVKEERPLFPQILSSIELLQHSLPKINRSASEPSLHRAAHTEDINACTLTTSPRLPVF

Target: C-Raf FL (full-length C-Raf protein, Y340E and Y341E activating mutations) (Homo sapiens (Human), UniProt P04049, Y340E/Y341E)
Type: biochemical
Settings: AlphaScreen, 60 min pre-incubation, reaction 1 hour at room temperature; read-out: c-Raf FL IC-50

Row | Structure (SMILES) | IC50
1 | Cc1ccc(NC(=O)c2ccnc(C(F)F)c2)cc1-c1cc(OC2CCOCC2)nc(N2CCOCC2)c1 [Example 1151, 2-(difluoromethyl)-N-(4-methyl-3-(2-morpholino-6-((tetrahydro-2H-pyran-4-yl)oxy)pyridin-4-yl)phenyl)isonicotinamide] | 0.18 nM
2 | Cc1ccc(NC(=O)c2ccnc(C(C)(C)C#N)c2)cc1-c1cc(OC2CCOCC2)nc(N2CCOCC2)c1 [Example 1152, 2-(2-cyanopropan-2-yl)-N-(4-methyl-3-(2-morpholino-6-((tetrahydro-2H-pyran-4-yl)oxy)pyridin-4-yl)phenyl)isonicotinamide] | 0.33 nM
3 | Cc1ccc(NC(=O)c2cnnc(C(C)(C)C#N)c2)cc1-c1cc(OC2CCOCC2)nc(N2CCOCC2)c1 [Example 1153, 6-(2-cyanopropan-2-yl)-N-(4-methyl-3-(2-morpholino-6-((tetrahydro-2H-pyran-4-yl)oxy)pyridin-4-yl)phenyl)pyridazine-4-carboxamide] | 0.49 nM
4 | Cc1ccc(NC(=O)c2cnnc(C3CC3)c2)cc1-c1cc(OC2CCOCC2)nc(N2CCOCC2)c1 [Example 1154, 6-cyclopropyl-N-(4-methyl-3-(2-morpholino-6-((tetrahydro-2H-pyran-4-yl)oxy)pyridin-4-yl)phenyl)pyridazine-4-carboxamide] | 0.12 nM
5 | Cc1ccc(NC(=O)c2ccnc(C(F)(F)F)c2)cc1-c1cc(OCCO)nc(N2CCOCC2)c1 [Example 1156, N-(3-(2-(2-hydroxyethoxy)-6-morpholinopyridin-4-yl)-4-methylphenyl)-2-(trifluoromethyl)isonicotinamide] | 0.2 nM
6 | Cc1ccc(NC(=O)c2ccnc(C(F)F)c2)cc1-c1cc(OCCO)nc(N2CCOCC2)c1 [Example 1160, 2-(difluoromethyl)-N-(3-(2-(2-hydroxyethoxy)-6-morpholinopyridin-4-yl)-4-methylphenyl)isonicotinamide] | 0.16 nM
7 | Cc1ccc(NC(=O)c2cc(C(F)(F)F)ccn2)cc1-c1cc(OCCO)nc(N2CCOCC2)c1 [Example 1163, N-(3-(2-(2-hydroxyethoxy)-6-morpholinopyridin-4-yl)-4-methylphenyl)-4-(trifluoromethyl)picolinamide] | 0.2 nM
8 | Cc1ncc(NC(=O)c2ccnc(C(F)(F)F)c2)cc1-c1cc(C2COCCO2)nc(N2CCOCC2)c1 (centres unmarked) [Example 1165, N-(2′-(1,4-dioxan-2-yl)-2-methyl-6′-morpholino-[3,4′-bipyridin]-5-yl)-2-(trifluoromethyl)isonicotinamide] | 0.72 nM
9 | CCC(F)(F)c1cc(C(=O)Nc2cnc(C)c(-c3cc(C4COCCO4)nc(N4CCOCC4)c3)c2)ccn1 (centres unmarked) [Example 1168, N-(2′-(1,4-dioxan-2-yl)-2-methyl-6′-morpholino-[3,4′-bipyridin]-5-yl)-2-(1,1-difluoropropyl)isonicotinamide] | 1.21 nM
10 | Cc1ncc(NC(=O)c2ccnc(C3CC3)c2)cc1-c1cc(C2COCCO2)nc(N2CCOCC2)c1 (centres unmarked) [Example 1169, N-(2′-(1,4-dioxan-2-yl)-2-methyl-6′-morpholino-[3,4′-bipyridin]-5-yl)-2-cyclopropylisonicotinamide] | 0.6 nM
11 | Cc1cc(=O)c(C(=O)Nc2cccc(C(F)(F)F)c2)cn1-c1ccnc(N2CCOCC2)c1 [Example 1175, 6-methyl-2′-morpholino-4-oxo-N-(3-(trifluoromethyl)phenyl)-4H-[1,4′-bipyridine]-3-carboxamide] | 20.4 nM

Second part, the molecule after the results:

Row | IC50 | Structure (SMILES)
12 | 1.52 nM | CCOc1cc(-c2cc(NC(=O)c3ccnc(C(C)(C)C#N)c3)cnc2C)cc(N2CCOCC2)n1 [Example 1147, 2-(2-cyanopropan-2-yl)-N-(2′-ethoxy-2-methyl-6′-morpholino-[3,4′-bipyridin]-5-yl)isonicotinamide]
13 | 2.29 nM | CCOc1cc(-c2cc(NC(=O)c3ccnc(C(C)(C)O)c3)cnc2C)cc(N2CCOCC2)n1 [Example 1148, N-(2′-ethoxy-2-methyl-6′-morpholino-[3,4′-bipyridin]-5-yl)-2-(2-hydroxypropan-2-yl)isonicotinamide]
14 | 0.56 nM | CCOc1cc(-c2cc(NC(=O)c3ccnc(C4CC4)c3)cnc2C)cc(N2CCOCC2)n1 [Example 1149, 2-cyclopropyl-N-(2′-ethoxy-2-methyl-6′-morpholino-[3,4′-bipyridin]-5-yl)isonicotinamide]
15 | 0.5 nM | Cc1ccc(NC(=O)c2ccnc(C(C)(C)O)c2)cc1-c1cc(OC2CCOCC2)nc(N2CCOCC2)c1 [Example 1150, 2-(2-hydroxypropan-2-yl)-N-(4-methyl-3-(2-morpholino-6-((tetrahydro-2H-pyran-4-yl)oxy)pyridin-4-yl)phenyl)isonicotinamide]
16 | 0.37 nM | Cc1ccc(NC(=O)c2ccnc(C(C)(C)F)c2)cc1-c1cc(OCCO)nc(N2CCOCC2)c1 [Example 1158, 2-(2-fluoropropan-2-yl)-N-(3-(2-(2-hydroxyethoxy)-6-morpholinopyridin-4-yl)-4-methylphenyl)isonicotinamide]
17 | 0.15 nM | Cc1ccc(NC(=O)c2ccnc(C(C)(F)F)c2)cc1-c1cc(OCCO)nc(N2CCOCC2)c1 [Example 1159, 2-(1,1-difluoroethyl)-N-(3-(2-(2-hydroxyethoxy)-6-morpholinopyridin-4-yl)-4-methylphenyl)isonicotinamide]
18 | 0.3 nM | Cc1ccc(NC(=O)c2ccnc(C(C)(C)C#N)c2)cc1-c1cc(OCCO)nc(N2CCOCC2)c1 [Example 1161, 2-(2-cyanopropan-2-yl)-N-(3-(2-(2-hydroxyethoxy)-6-morpholinopyridin-4-yl)-4-methylphenyl)isonicotinamide]
19 | 0.74 nM | Cc1ncc(NC(=O)c2ccnc(C(C)(F)F)c2)cc1-c1cc(C2COCCO2)nc(N2CCOCC2)c1 (centres unmarked) [Example 1166, N-(2′-(1,4-dioxan-2-yl)-2-methyl-6′-morpholino-[3,4′-bipyridin]-5-yl)-2-(1,1-difluoroethyl)isonicotinamide]
20 | 2.12 nM | Cc1ncc(NC(=O)c2ccnc(C(C)(C)F)c2)cc1-c1cc(C2COCCO2)nc(N2CCOCC2)c1 (centres unmarked) [Example 1167, N-(2′-(1,4-dioxan-2-yl)-2-methyl-6′-morpholino-[3,4′-bipyridin]-5-yl)-2-(2-fluoropropan-2-yl)isonicotinamide]
